Screening data deposited in PubChem BioAssay by Broad Institute.
Only some compounds are listed: those with a hit (about 1.2% of all), similar ones and a draw of the others.
Statin myotox sup = suppression of simvastatin myotoxicity; C2C12 myotubes + simvastatin, ATP luminescence, 48 h; scaled: DMSO 0, geranylgeraniol control 100; AID 602340; rescue of ATP level, % at 7.49 µM; 330,000 tested, 0.78% active;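 active means mean ATP rescue above about 67%, or every replicate alone reaching that limit, limit read from the data, passing the limit was not always enough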;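 further: myotubes were challenged with 10 µM simvastatin during compound exposure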
miR-122 sensor = miR-122 inhibition in Huh7 cells; activation (reporter increase), % at 12.5 µM; AID 602342; 340,000 tested, 0.3% active; Huh7 miR-122 Renilla luciferase sensor, 48 h; neutral wells = 0, positive control = 100;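 active means mean replicate activation score at least 90 and every replicate individually at or above 90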;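 further: higher luciferase means less miR-122 activity so hits act as miR-122 inhibitors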
Cneo AK release = Cryptococcus neoformans lysis via adenylate kinase release. 360,000 tested, 0.2% active. lysis activity, % at 15 µM. AID 651654. C. neoformans lysis, adenylate kinase release luminescence, 4 h; normalised: neutral wells 0, clomiphene wells 100;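 active means mean lysis activity across replicates of at least 80%, whatever share of replicates individually reach that level; inactive means mean lysis activity below 80%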
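Test system: log-phase Cryptococcus neoformans yeast cells; Quantity: yeast cell density of 5 × 10^6 cells/mL; Buffer or medium: YPD; Doses: single compound concentration per well; Timing: 4 h at 37 °C static, read 1 h later; Measured by: AK luminescence; Read-out basis: lysis from increased AK signal; Control set: Clomiphene as positive control.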
UUG fidelity = alters start codon recognition fidelity in yeast; S. cerevisiae UUG-firefly luciferase reporter, luminescence/redox ratio; activity score, % at 18.7 µM; actives 0.13% (n = 350,000); AID 602363;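 active = replicate mean at a twofold rise or more, about +100% in these data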;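 also: firefly luciferase made from a UUG start codon reports start codon fidelity; reporter light over untreated wells divided by growth signal over untreated wells; some hits fall short of that in this replicate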
* marks the source's active call; other numbers are inactive results; / = not tested or not shown; [ ] = dose if it differs, or a comment.

#	mol	Statin myotox sup	miR-122 sensor
1	C[C@H]1CN([C@@H](C)CO)C(=O)c2cc(-c3ccc(C#N)cc3)cnc2O[C@H]1CN(C)C(=O)CN(C)C	1	0[16.7 µM]
2	Cc1ccc2[nH]c(=O)c(NC(N)=S)nc2c1	101*	-3
3	Cc1ccc(NC(=S)c2nc3ccccc3[nH]2)c(C)c1	/	-7
4	CC(C)Cn1c(NCCO)nc2ccccc21	93*	-7
5	CCCCn1c(NCCO)nc2ccccc21	7	-1
6	C[C@H](CO)N1C[C@H](C)[C@@H](CN(C)S(=O)(=O)c2ccc(Cl)cc2)Oc2c(NC(=O)C3CCCCC3)cccc2C1=O	143*	27[16.7 µM]
7	Cc1ccc(S(=O)(=O)N(C)C[C@H]2Oc3c(cccc3N(C)C)C(=O)N([C@H](C)CO)C[C@H]2C)cc1	-11	-2[16.7 µM]
8	Cc1noc(C)c1S(=O)(=O)N(C)C[C@@H]1Oc2c(NC(=O)C3CCCCC3)cccc2C(=O)N([C@H](C)CO)C[C@@H]1C	-83	197*[16.7 µM]

#	Cneo AK release	UUG fidelity
1	0	9
2	-2	-12
3	-19	-41
4	-4	-7
5	-1	-12
6	4	1
7	-1	-2
8	-12	29

More records:
#	mol	Statin myotox sup	miR-122 sensor
9	C[C@@H]1CN([C@@H](C)CO)C(=O)c2cccc(NS(=O)(=O)c3ccc(Cl)cc3)c2O[C@@H]1CN(C)S(=O)(=O)c1ccc(F)cc1	0	1[16.7 µM]
10	Cc1noc(C)c1S(=O)(=O)N(C)C[C@H]1Oc2c(NC(=O)C3CCCCC3)cccc2C(=O)N([C@H](C)CO)C[C@H]1C	12	4[16.7 µM]
11	C[C@@H]1CN([C@@H](C)CO)C(=O)c2cccc(NS(=O)(=O)c3ccc(F)cc3)c2O[C@H]1CN(C)S(=O)(=O)c1ccc(Cl)cc1	/	-4[16.7 µM]
12	Cc1ccc(S(=O)(=O)N(C)C[C@H]2Oc3c(cccc3N(C)C)C(=O)N([C@@H](C)CO)C[C@H]2C)cc1	-6	73[16.7 µM]
13	O=C(Cc1ccccn1)N[C@H]1CC[C@@H](CCNC(=O)c2cc(Cl)cc(Cl)c2)O[C@H]1CO	4	4[16.7 µM]
14	C[C@H]1CN([C@@H](C)CO)C(=O)c2cccc(NC(=O)C3CCCCC3)c2O[C@@H]1CN(C)S(=O)(=O)c1ccc(Cl)cc1	119*	9[16.7 µM]
15	CCCC[C@@H](O)C1=C(COc2ccccc2)C[C@H]2C(=O)N(Cc3ccccc3)C(=O)[C@H]2[C@H]1CO	/	/
16	COc1ccc(OCCn2c(NC(=O)c3ccco3)nc3ccccc32)cc1	5	7

#	Cneo AK release	UUG fidelity
9	/	/
10	-12	14
11	110*	16
12	90*	17
13	-1	12
14	-1	0
15	-10	/
16	3	-24

Remaining list, next part.
#	mol	Statin myotox sup	miR-122 sensor
17	CCCn1c(NC(=O)c2ccco2)nc2ccccc21	102*	41
18	Cc1noc(C)c1NC(=O)N(C)C[C@H]1Oc2ccc(NC(=O)NC3CCCCC3)cc2C(=O)N([C@@H](C)CO)C[C@@H]1C	-1	-2[16.7 µM]
19	CC(C)n1cc(/C=C2\NC(=O)N(c3cccc(Cl)c3)C2=O)c2ccccc21	115*	4
20	CC(C)n1cc(/C=C2/NC(=O)N(c3cccc(Cl)c3)C2=O)c2ccccc21	-3	1
21	C/C=C/c1ccc([C@@H]2[C@@H](CO)N(C(C)=O)[C@H]2CN(CCC)C(C)=O)cc1	0	-14[16.7 µM]
22	CCC(=O)Nc1c(C#N)c2nc3ccccc3nc2n1-c1ccccc1C	192*	-2
23	CCCCn1c(NC(=O)CC)c(C#N)c2nc3ccccc3nc21	/	1
24	O=C(C[C@H]1C=C[C@@H](NC(=O)Nc2ccc3c(c2)OCO3)[C@H](CO)O1)NCc1ccc(Cl)cc1	9	/

#	Cneo AK release	UUG fidelity
17	6	13
18	1	3
19	1	-17
20	-12	18
21	3	-3
22	1	-8
23	3	-13
24	28	-7

Following part:
#	mol	Statin myotox sup	miR-122 sensor
25	CCCOc1cccc(C(=O)O)c1	98*	-2
26	Cc1cc(C(=O)Nc2cccc3c2O[C@H](CN(C)Cc2ccc(C(=O)O)cc2)[C@H](C)CN([C@H](C)CO)C3=O)n(C)n1	-1	0[16.7 µM]
27	CC(C)C#Cc1cnc2c(c1)C(=O)N([C@H](C)CO)C[C@@H](C)[C@@H](CN(C)C(=O)Nc1ccccc1)O2	5	-5[16.7 µM]
28	O=c1c[n+]([O-])c2ccccc2n1OCc1c(F)cccc1F	-1	111*
29	CCOn1c(=O)c[n+]([O-])c2ccccc21	1	2
30	CCCN1CN(Cc2ccco2)c2nc3ccccc3n2C1	89*	-3
31	O=C(CN1CCOCC1)N[C@@H]1CC[C@@H](CCNC(=O)C2CCC2)O[C@@H]1CO	-1	43[16.7 µM]
32	CC(=O)N[C@H]1CC[C@H](CCNC(=O)C2CCC2)O[C@@H]1CO	-1	/

#	Cneo AK release	UUG fidelity
25	-3	-11
26	-3	-11
27	1	30
28	6	-12
29	3	-19
30	-1	-7
31	98*	/
32	101*	14

In the list so far, these contain an NH in an aromatic ring.
#	mol	Statin myotox sup	miR-122 sensor
2	Cc1ccc2[nH]c(=O)c(NC(N)=S)nc2c1	101*	-3
3	Cc1ccc(NC(=S)c2nc3ccccc3[nH]2)c(C)c1	/	-7

#	Cneo AK release	UUG fidelity
2	-2	-12
3	-19	-41

Further results.
#	mol	Statin myotox sup	miR-122 sensor
33	O=C(CCN1CCCCC1)NCC[C@@H]1CC[C@H](NC(=O)c2ccc(F)cc2)[C@@H](CO)O1	3	/
34	O=C(NCC[C@H]1CC[C@H](NS(=O)(=O)c2ccc(F)cc2)[C@@H](CO)O1)c1ccc2c(c1)OCO2	2	/
35	COc1ccc(NC(=O)N(C)C[C@@H]2Oc3ccc(NS(=O)(=O)c4c(C)noc4C)cc3CC(=O)N([C@H](C)CO)C[C@H]2C)cc1	26	-4[16.7 µM]
36	C[C@H]1CN([C@@H](C)CO)C(=O)c2cc(C#CCN(C)C)cnc2O[C@H]1CN(C)Cc1ccc(F)cc1	-6	5[16.7 µM]
37	Cc1ccc(S(=O)(=O)N[C@H]2CC[C@@H](CCNC(=O)C3CCCC3)O[C@H]2CO)cc1	4	-5[16.7 µM]
38	Cc1ccc(S(=O)(=O)N[C@H]2CC[C@H](CCNC(=O)C3CCCC3)O[C@@H]2CO)cc1	1	-16[16.7 µM]
39	C[C@H]1CN([C@@H](C)CO)C(=O)c2cc(C#CC3CC3)cnc2O[C@H]1CN(C)S(=O)(=O)c1cccc(F)c1	38	4[16.7 µM]
40	CCOC(=O)c1sc2nc(C3CC3)cc(-c3ccc(OC)cc3)c2c1N	98*	-6

#	Cneo AK release	UUG fidelity
33	86*	12
34	102*	12
35	-2	3
36	58	-4
37	57	19
38	95*	30
39	-10	12
40	-4	-29

Further results follow.
#	mol	Statin myotox sup	miR-122 sensor
41	CCOC(=O)c1sc2nc(C3CC3)cc(-c3ccc(F)cc3)c2c1N	13	-6
42	O=C(Cn1c(=O)n(CC2CCCO2)c(=O)c2ccccc21)c1ccc(Cl)c(Cl)c1 (centres undefined)	80*	6
43	O=C1c2ccccc2-c2onc3ccc(Oc4ccccc4)c1c23	100*	-11
44	CCOC(=O)C(C(=O)OCC)c1cc(Br)c2noc3c2c1C(=O)c1ccccc1-3	/	2
45	CC(C)N1C(=O)CC(Nc2ccc(N3CCOCC3)cc2)C1=O (centres undefined)	-22	183*
46	CCc1ccc(CN2CCN(C(=O)c3cccc(OC)c3OC)CC2)cc1	91*	-5
47	Cc1ccc(S(=O)(=O)N(C)C[C@H]2Oc3ccc(NC(=O)Nc4ccc(F)cc4)cc3C(=O)N([C@@H](C)CO)C[C@@H]2C)cc1	-28	-7[16.7 µM]
48	Cc1ccc(S(=O)(=O)N2c3cc(C)ccc3OCC2C(C)(C)C)cc1 (centres undefined)	-7	65
49	COc1ccc(S(=O)(=O)N2c3cc(C)ccc3OCC2C(C)(C)C)cc1 (centres undefined)	-51	151*

#	Cneo AK release	UUG fidelity
41	1	-5
42	1	-4
43	3	20
44	/	/
45	-3	-15
46	1	-10
47	51	25
48	-1	-1
49	-1	-24

Sorted by the number under miR-122 sensor (lowest first): some entries from above
item | smiles | miR-122 sensor | UUG fidelity
44 | CCOC(=O)C(C(=O)OCC)c1cc(Br)c2noc3c2c1C(=O)c1ccccc1-3 | 2 | /
42 | O=C(Cn1c(=O)n(CC2CCCO2)c(=O)c2ccccc21)c1ccc(Cl)c(Cl)c1 (centres undefined) | 6 | -4
45 | CC(C)N1C(=O)CC(Nc2ccc(N3CCOCC3)cc2)C1=O (centres undefined) | 183* | -15
